Paper PMC9174471
This is one part of the list.

Molecular target: Obg-like ATPase 1 (UniProt Q9NTK5)
Assay: cross-link between two proteins; cross-linking mass spectrometry

Listed as a hit, yes:
U2 small nuclear ribonucleoprotein A', P09661
Heterogeneous nuclear ribonucleoprotein U, Q00839
Alpha-internexin, Q16352
Neuromodulin, P17677
